Curated experimental data: water solubility values

Source: data files of OPERA 2.9 (Mansouri et al.), github.com/kmansouri/OPERA.

Solubility in water is on a log10 molar scale (set defined at 25 °C).
"–" marks a cell with nothing listed here.

compound	name	log S (log10 mol/L)
CCc1nc(C2CC2)c(C(N)=O)n1Cc1ccc2oc(-c3ccccc3NS(=O)(=O)C(F)(F)F)c(Br)c2c1	Saprisartan	-4.607
CC(CCC(C)C(N)=O)C(N)=O (stereo not drawn)	2,5-Dimethylhexanediamide	0.375
O=c1c2cc(Cl)ccc2[nH]c2cc3c(=O)c4cc(Cl)ccc4[nH]c3cc12	2,9-Dichloro-5,12-dihydroquino[2,3-b]acridine-7,14-dione	-7.42
CC(C)CCOCCc1ccccc1	3-Methylbutyl 2-phenylethyl ether	-3.934
CCCCCCCCCCCCOc1ccc(C(=O)O)cc1	4-(Dodecyloxy)benzoic acid	-2.45
Cc1ccc2c(=O)[nH]c(=O)oc2c1	7-Methyl-2H-1,3-benzoxazine-2,4(3H)-dione	-3.176
CCC(C)(C)C1CCCCC1OC(C)=O (stereo not drawn)	2-(2-Methylbutan-2-yl)cyclohexyl acetate	-4.446
COc1ccc(OC)c(NC(C)=O)c1	Acetamide, N-(2,5-dimethoxyphenyl)-	-1.592
Clc1cc(Oc2cc(Cl)c(Cl)c(Cl)c2Cl)cc(Cl)c1Cl	2,3,3',4,4',5,5'-Heptachlorodiphenyl ether	-9.54
CN1C(CC(=O)c2ccccc2)CCCC1CC(O)c1ccccc1.Cl (stereo not drawn)	–	-1.175
CCC(C)CCCC(C)(C)O (stereo not drawn)	2,6-Dimethyloctan-2-ol	-2.749
Cc1cc(CCC(=O)OCCOCCOCCOC(=O)CCc2cc(C)c(O)c(C(C)(C)C)c2)cc(C(C)(C)C)c1O	–	-6.26
C=CCCCCCCCCCCCCCC	1-Hexadecene	-8.471
O=C(O)c1ccc2c(c1C(=O)O)C(=O)c1ccccc1C2=O	–	-2.814
C=CC(C)CCC=C(C)C (stereo not drawn)	Dihydromyrcene	-5.965
CON=C(Cc1cccnc1)c1ccc(Cl)cc1Cl	Pyrifenox	-3.141
Cc1ccc(S(=O)(=O)NCC(=O)O)cc1	N-4-Tosylglycine	-1.443
O=C=NCc1cccc(N2C(=O)N(c3cccc(CN=C=O)c3)C2=O)c1	–	-5.037
CC(=O)CCC1=C(C)CCCC1(C)C	Dihydro-beta-ionone	-3.655
C=CC(=O)OCCCCOC(=O)Oc1ccc(C(=O)Oc2ccc(OC(=O)c3ccc(OC(=O)OCCCCOC(=O)C=C)cc3)c(C)c2)cc1	–	-6.371
CC(CNC1CCCCC1)OC(=O)c1ccccc1 (stereo not drawn)	Hexylcaine	-4.43
CCCCCCCOCC(C)CC=O (stereo not drawn)	Butanal, 4-(heptyloxy)-3-methyl-	-3.319
Nc1cnc2ncncc2n1	Pteridin-6-amine	-2.344
O=C(COC(=O)c1ccccc1)NC(CO)(CO)CO	–	-1.269
CN1CCN(c2ncccc2CO)C(c2ccccc2)C1 (stereo not drawn)	2-(4-Methyl-2-phenyl-1-piperazinyl)-3-pyridinemethanol	-2.032
CC(C)OC(=O)CCCCC(=O)OC(C)C	Diisopropyl adipate	-3.107
CC(C)=CCCC1=CCC(C)(C=O)CC1 (stereo not drawn)	–	-4.273
CC(C)(C)C1CCC2(CC1)OCC(CCl)O2 (stereo not drawn)	2-Chlormethyl-8-(1,1-dimethylethyl)-1,4-dioxaspiro[4.5]decan	-4.522
O=C(O)c1cccc(Cl)n1	6-Chloro-2-picolinic acid	-1.631
CC[C@@]12CC[C@H]3C4=C(CC[C@@H]3[C@H]1CCC2=O)CC(OC)=CC4 (racemic)	–	-5.705
CCOC(=O)[C@H](CCc1ccccc1)N[C@@H](C)C(=O)N1Cc2cc(OC)c(OC)cc2C[C@H]1C(=O)O	Moexipril	-4.931
Cc1c(O)cccc1C(=O)N[C@@H](CSc1ccccc1)[C@H](O)CN1C[C@H]2CCCC[C@H]2C[C@H]1C(=O)NC(C)(C)C	Nelfinavir	-5.473
CC(=O)c1ccc(O[C@@H]2O[C@H](CO)[C@@H](O)[C@H](O)[C@H]2O)cc1	Picein	-1.174
CCCCCCCCCC(=O)CC(=O)C(=O)O	2,4-Dioxo-tridecanoic acid	-3.083
CC(C)(C)c1cc(CO)cc(C(C)(C)C)c1O	2,6-Di-tert-butyl-4-(hydroxymethyl)phenol	-4.013
CCCCC(CC)COC(=O)CCc1cc(C(C)(C)C)c(O)c(C(C)(C)C)c1 (stereo not drawn)	2-Ethylhexyl 3-(3,5-di-tert-butyl-4-hydroxyphenyl)propionate	-7.115
CCCCCCOC(=O)/N=C(/N)c1ccc(NCc2nc3cc(C(=O)N(CCC(=O)OCC)c4ccccn4)ccc3n2C)cc1	Dabigatran etexilate	-2.543
COc1ccccc1NC(=O)C(N=Nc1ccc(-c2ccc(N=NC(C(C)=O)C(=O)Nc3ccccc3OC)c(Cl)c2)cc1Cl)C(C)=O (stereo not drawn)	C.I. Pigment Yellow 17	-8.424

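OPERA's authors assembled the values from existing databases and did not measure them anew. One number stands for a compound and property, with no spread given. Method, purity and exact conditions of the single measurements are not given. Where a salt, mixture or single isomer is drawn, the source does not say that exactly this form was tested. Some upstream entries may be estimates or bounds without being marked so.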